Measurements from patent US20240263147A1, “CARDIAC ORGANOID AND ANTI-ELECTRO-MITOCHONDRIAL DESYNCHRONIZATION THERAPY” (YISSUM RESEARCH DEVELOPMENT COMPANY OF THE HEBREW …, priority 2021, published 2024).

Legend:
[1] = test system: hiPSC-derived vascularized cardiac organoids; assay: Beating of vascularized cardiac organoids under pharmaceutical stimulation; type: cell-based, human
Method: hiPS-derived cardiomyocytes and microvascular cardiac endothelial cells (VEC Technologies, USA) were counted and mixed in a 2:1 ratio in growth factor reduced Matrigel (BD Biosciences, San Jose, CA) at a cell density of 6.8×10^4 cells per μl. A volume of 1.1 μl of the gel-imbedded mixture (7.48×10^4 cells) was injected into each microwell and left to form spontaneously in RPMI-1640 supplemented with B27 minus insulin and 5 ng/ml vascular endothelial growth factor (VEGF-A, Peprotech) until their spontaneous beating was regained after 6-10 days.
Fast phase-contrast imaging (17 frames per second) was performed at suitable magnification using an LSM-700 Zeiss microscope. The time-lapse micrograph was analyzed using a custom MATLAB® code. Briefly, multiple regions of interest (ROIs) were selected on the cardiac tissue borders, producing a distinct area with changes representative of the cardiac contraction. Dynamic changes in the ROI intensity were measured over time and converted into beating rates using Fast Fourier Transformation (FFT). Contractility was calculated based on the frequency amplitude magnitude.

[2] = test system: vascularized cardiac organoids; assay: Integrated metabolic-electro-mechanical sensor chip: simultaneous contraction, field potential and interstitial oxygen; type: cell-based, human
Method: The MEA design and printed connections enabled access to 45 different electrodes inside the platform intermittently via a compatible sensor circuit (FIGS. 9A-9B). Spontaneous cardiac field potentials (FPs) were recorded from cardiac organoids using an integrated signal conditioning circuit (AD8232®), with a 2-pole adjustable high-pass filter, 3-pole adjustable low-pass filter, adjustable gain, and medical instrumentation amplifiers to extract, amplify, and filter the extracellular field potential of the organoids remotely within the confined well. […] Spontaneous cardiac field potentials were measured at 100 Hz sampling rate in each microwell. Field potential rhythm frequency was calculated in real-time using a custom-made MATLAB® software imposing Fourier Transformation (FFT) on the evolving kinetic data (FIGS. 9C-9D).
Real-time oxygen measurement was performed based on previously described elements. […] A phase shift is measured between the emission hardware-filtered first detector (PMT), and a second excitation detector (cPMT). […] Contraction rate and oxygen rhythm frequency were calculated in real-time using a custom-made MATLAB® software imposing Fourier Transformation (FFT) on the evolving kinetic data. […] Cardiac displacement was measured by the embedded oxygen beads inside the cardiac organoids during a contraction. […]

CNC[C@H](O)c1ccc(O)c(O)c1 [epinephrine]
increase of relative contraction / contraction amplitude [1]: 18%
interstitial oxygen oscillation frequency [2]: 1.83 Hz
